# Yeast mating assay B: variants of the scFv Ab-14

The measurements come from Li et al. 2023 (doi:10.1038/s41467-023-39022-2) through the FLAb antibody collection.

Binding partner: SARS-CoV-2 spike HR2 peptide, sequence PDVDLGDISGINAS.

Parent scFv Ab-14: VH joined to VL by three GGGGS repeats. Changes lie in the light chain CDRs alone.
VH: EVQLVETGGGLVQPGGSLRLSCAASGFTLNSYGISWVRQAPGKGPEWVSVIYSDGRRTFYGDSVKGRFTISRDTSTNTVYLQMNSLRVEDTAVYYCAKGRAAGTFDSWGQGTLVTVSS
VL: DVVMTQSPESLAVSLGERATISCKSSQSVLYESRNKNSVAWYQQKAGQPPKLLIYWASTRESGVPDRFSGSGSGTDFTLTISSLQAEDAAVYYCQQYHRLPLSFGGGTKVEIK

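The starting antibody came from a phage panning campaign against this peptide. These sequences belong to a second round, designed from the earlier measurements on random variants of the parent. Group labels follow the data file (Ctrl: baseline library sampled from a position-specific scoring matrix, with some repeated check sequences; Rand: our label for a block that the file lists under HC and that is probably the random mutants of the ten best first-round binders; En: ensemble of fine-tuned language models; GP: Gaussian process model; GPLM: also part of the Gaussian process libraries; HC: hill climbing; Gen: genetic algorithm; Gibbs: Gibbs sampling; a sequence that several methods proposed may carry one label only). The scFvs were displayed on barcoded MATa yeast, the peptide on MATalpha yeast. Binding brings cells together so that they mate, and sequencing counts the barcode pairs among the diploids. The ratio of observed to expected reads was calibrated, replicate by replicate, on BCL2-family standards whose Kd was known from biolayer interferometry. The assay was run in six technical replicates.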

Variants are written as CDR1, CDR2 and CDR3 of the light chain (limits as in the source). Parent: KSSQSVLYESRNKNSVA, WASTRES, QQYHRLPLS.
Scale: log10 of Kd in nM, estimated from mating counts; low values are strong binders.
A mean of the replicates is given; it leaves out those without a signal.
A pair that was not seen in that replicate is written "n.d."; this usually means weak binding, but a binder can also be missed.
Empty control strains, which show no peptide, gave a signal in 4% of pairings with all light chain designs; the median was 2.64 and 95% of these signals were weaker than 1.59. No background was subtracted.
A sequence measured in both rounds can read differently, since the two assays cover different ranges.
In the paper, a design with two or fewer of six values counts as a poor binder.
Of ten entries with the parent sequence, four were seen in most replicates (averages 0.34 to 2.37), three in one and three in none, so single entries are noisy.

CDR-L1	CDR-L2	CDR-L3	group	log10 Kd, replicates	mean log10 Kd (nM)
KLQQSVLYESRNKNSVA	QASTRMS	QQYHRLPLS	GP_Gen	0.15 / 0.10 / 0.09 / -0.25 / -0.05 / 0.18	0.04
KFKELFNMWARAHGNVA	DATERNV	QQYSRLPIS	En_Gibbs	1.33 / 0.39 / 1.11 / 1.25 / 1.08 / 0.61	0.96
KLSQSVLYQMEQKNSVA	QASTRMS	QQYHRLPLS	GP_Gibbs	0.40 / 0.31 / 0.13 / -0.04 / 0.14 / 0.31	0.21
KSPQSVLYESANKNSVA	HASTRES	QQYHRLPLS	Ctrl	0.40 / -0.22 / 0.16 / -0.28 / -0.18 / 0.00	-0.02
KLRQVTGYESYVRNSVA	QMSTRAE	QDYHRLPLS	En_HC	0.79 / 0.76 / 0.50 / 0.59 / 0.51 / 0.58	0.62
HLSQSVLYESRNKNSVA	NASTRCS	QQYHRLPLS	GP_Gen	-0.16 / -0.28 / -0.43 / -0.46 / -0.17 / -0.08	-0.26
KLSQSVDYESRNKNNVA	AASTRES	QQYHRLPLS	GP_Gen	0.11 / 0.15 / 0.12 / 0.78 / 0.12 / 0.00	0.21
MLMQVGGYESNNKNSIA	DLRTRES	QQYHRLPLS	En_HC	2.55 / 1.96 / 0.56 / 1.15 / 1.64 / 0.88	1.46
KLRQSNLYESRNKNKVA	WASTRES	QQYHRLPLS	Rand	n.d. / n.d. / n.d. / n.d. / n.d. / n.d.	n.d.
KSSQSALYESRNKNSVA	WASTRES	QQYERLPLS	Ctrl	2.01 / n.d. / 1.52 / 1.59 / 1.19 / 1.23	1.51
VLGGQWGLGTTQNSSIA	NDSETML	QQYWRLPLM	En_Gibbs	n.d. / 4.02 / n.d. / 1.43 / n.d. / 2.03	2.50
KVFQNVLMESRNKNSVA	AASTRES	QQYHRLPLS	Ctrl	0.36 / 0.03 / 0.02 / 0.06 / 0.07 / 0.31	0.14
QIGMLLNFELQKINNVA	QMETRVN	QQYDRLPLS	En_Gen	1.70 / n.d. / 0.85 / 1.52 / 1.94 / 1.34	1.47
KMSQSQLYESRNINSVA	NASTRLT	QQYHRLPLS	GP_Gibbs	-0.11 / -0.12 / 0.05 / -0.06 / -0.24 / 0.34	-0.02
KLSQSVEYQSRDKNAVA	DAQTRLS	QQYHRLPLS	GP_Gibbs	0.05 / -0.01 / -0.12 / -0.05 / -0.09 / 0.10	-0.02
KLSQSFLYEDRNKNSVA	NASQRES	QQYHRLPLS	GP_Gen	0.61 / 0.46 / 0.16 / 0.20 / 0.19 / 0.57	0.36
KCSQSVIYESRGKNFVA	EAWTRES	QQYHRLPLS	Ctrl	n.d. / 2.53 / n.d. / n.d. / n.d. / 2.54	2.53
KLQQFYEYESRWKNSVA	HASTRRS	QQYHRLPLS	GP_Gibbs	n.d. / 1.96 / 1.38 / 2.48 / 2.04 / 1.66	1.90
KSSISYLYESLNKNSVA	NASTRES	QQYHRLPLS	GP_HC	0.17 / -0.17 / 0.17 / -0.16 / 0.13 / 0.13	0.05
MLGDTVMQGMYSRNSVA	QEETRAD	QQYHHLPLS	En_HC	0.66 / 0.63 / 0.77 / 0.62 / 0.01 / 0.52	0.54
KLQWYPLGIRDTGSAVA	EAATKYN	QQYMRLPLM	En_Gibbs	0.25 / 0.68 / 0.31 / 1.09 / 0.22 / 1.07	0.61
KFSQSVLYESRNKNSVA	DANTRES	QQYHRLPLS	GP_HC	-0.20 / -0.38 / -0.82 / -0.77 / -0.70 / -0.24	-0.52
KISQMFNVGTKNTNSLA	EMNTRGN	QDYHRLPLS	En_HC	1.70 / 1.92 / 1.97 / 1.04 / 1.33 / 2.32	1.71
KMQQSQLYESRMSNAVA	NASQRMS	QQYHRLPLS	GP_Gibbs	0.04 / -0.07 / -0.02 / -0.06 / -0.21 / -0.04	-0.06

Further variants, results first:

log10 Kd, replicates	mean log10 Kd (nM)	CDR-L1	CDR-L2	CDR-L3	group
0.00 / -0.32 / -0.19 / -0.40 / -0.21 / -0.23	-0.22	KLSQSVLYEQRNKNSVA	NASTRES	QQYHRLPLS	GP_Gen
1.08 / 0.72 / 0.75 / 0.72 / 1.12 / 1.43	0.97	KLQQSELYESRNTNSVA	GASTRCE	QQYHRLPLS	GP_Gibbs
-0.36 / -0.26 / -0.13 / -0.41 / -0.16 / -0.14	-0.24	KQSQAVPYEQRNKNNVA	QGSTRES	QQYHRLPLS	GP_Gibbs
0.00 / -0.19 / -0.25 / -0.20 / -0.16 / 0.04	-0.13	KESQSVLTEWRNKNSVA	DASTRES	QQYHRLPLS	GP_HC
1.00 / 0.72 / 0.70 / 0.65 / 0.86 / 1.15	0.85	MLLQATMYGERARNSVA	HASTRED	QQYHRLPLI	En_HC
0.31 / -0.01 / 0.27 / 0.12 / 0.21 / 0.26	0.20	KASQSVLYESVNKNSVA	DASTRES	QQYHRLPLS	GPLM_HC
1.07 / 0.15 / 0.61 / 0.12 / 0.47 / 0.86	0.55	NVGQMMDGMTRNRNNVA	HQSTRED	QHYHRLPLS	En_HC
1.52 / 1.19 / 1.24 / 1.83 / 1.21 / 1.20	1.37	KQSQSVLYESRNKNAVA	DASTRES	QWYHWLPLS	GP_HC
0.37 / 0.27 / 0.29 / 0.16 / -0.01 / 0.53	0.27	VFSQSVLYESRTKNSVA	NASTRES	QQYHRLPLS	GP_HC
0.12 / 0.20 / 0.34 / 0.14 / -0.11 / 0.15	0.14	HLSPSVEYESRNKNSVA	NASSRES	QQYHRLPLS	GP_HC
0.81 / 0.55 / 0.50 / 0.59 / 0.65 / 0.88	0.66	KLSQVTNSEHRNKNSIA	EMVTREK	QQYDRLPLS	En_HC
n.d. / n.d. / n.d. / n.d. / n.d. / n.d.	n.d.	KSSQSVLRESRNKNSVA	SASTRES	QQYHRNRLK	Ctrl
0.45 / 0.43 / 0.37 / 0.54 / 0.16 / 0.55	0.42	KLSQLWLYESRNKNSVA	HASTRES	QQYHRLPLS	GP_Gen
1.22 / 0.69 / 1.54 / 0.55 / 0.77 / 1.16	0.99	MISGSVMSESRLKNSVA	QTTTREP	QQYDRLPLS	En_HC
0.49 / 0.32 / 0.21 / 0.17 / 0.00 / 0.70	0.31	KMSQSVLMESRNCNSVA	DASTRES	QQYHRLPLS	GP_HC
0.86 / 1.03 / 0.03 / 1.01 / 0.36 / 1.14	0.74	KVSEFMRGLMQKTDSIA	DNVTRNN	QQYDRLPLS	En_Gen
0.79 / 0.97 / 0.81 / 0.65 / 0.90 / 1.44	0.93	KITWYELEMREPGSAVA	AAEVRAN	QQYWRLPLE	En_Gibbs
0.35 / 0.03 / 0.21 / 0.18 / 0.31 / 0.33	0.23	KSSNSYLYESRNKNSVA	AASTRES	QQYHRLPLS	GP_HC
0.25 / 0.05 / 0.24 / -0.08 / 0.31 / 0.54	0.22	KVSQSVPYESRNKNSVA	DASTRES	QQYHRLPLS	GP_Gen
1.66 / n.d. / 2.61 / 2.25 / 1.76 / 1.57	1.97	KSSQSVLYESRNFWSVA	GASTRES	QQYHRLPLS	GP_HC
0.09 / 0.63 / 0.18 / -0.08 / 0.48 / 0.80	0.35	KLSQSTLYDSINKNSVA	SASTRES	QQYKRLPLS	GP_HC
0.80 / 0.81 / 1.01 / 0.66 / 0.89 / 1.15	0.89	YLDSGDVDGQKSKESIA	DADHKGA	QQYARLPLG	En_Gibbs
n.d. / n.d. / n.d. / n.d. / n.d. / n.d.	n.d.	KSSHSVLYESRNKNSVA	WASDRES	DQYHRLPLS	Ctrl
1.05 / 0.99 / 1.31 / 0.65 / 0.81 / 1.06	0.98	MLTWGDDHETGRQNSIA	HAHERNT	QQYHQLPLI	En_Gibbs